Results reported in EP1534672B1, “RETINOL DERIVATIVES, THEIR USE IN THE TREATMENT OF CANCER AND FOR POTENTIATING THE EFFICACY OF OTHER CYTOTOXIC AGENTS” (priority 2002, dated 2004).

Test system: Human Breast Adenocarcinoma Cell Line MDA-MB-231
Test: Drug cytotoxicity testing (viable cell count, trypan blue exclusion, cell growth inhibition)
Format: cell-based
Description: MDA-MB-231 cells were propagated in MEM culture medium with 2 mM L-glutamine, 10% heat-inactivated fetal bovine serum (FBS) and antibiotics. DU 145 cells were cultured in MEM culture medium containing 2 mM L-glutamine, 1 mM sodium pyruvate, 10% FBS and antibiotics. SKOV-3 cells were cultured in McCoy's 5A culture medium, supplemented with 1,5 mM L-glutamine, 10% FBS and antibiotics. A549 cells were cultured in Ham's F-12 culture medium with 1 mM L-glutamine, 10% FBS and antibiotics. All media and supplements were purchased from Sigma-Aldrich (St.Louis, MO, USA). Cell propagation of all lines was carried out in Falcon™ 25 cm^2 cultivation flasks (Becton Dickinson Labware).
Drug cytotoxicity testing was carried out with using Falcon™ 96-well cultivation plates for adherent cells (Becton Dickinson Labware). These plates were seeded by cells either at 12 × 10^3 MDA-MB-231 cells/well, or at 12 × 10^3 DU 145 cells/well, or at 14 × 10^3 SKOV-3 cells/well, or at 10 × 10^3 A549 cells/well in a volume of 200 µL/well.
The cell cultures in cultivation plates were allowed to adhere for 24 hour of incubation. On day 1 after cell seeding, 2 µL solutions of the drugs to be tested in medium with 5% FBS was added to the cultures. In the control cultures, 2 µL of medium with 5% FBS was added as solvent control. The cells were incubated for 2 consecutive days. At the end of the incubation period adherent cells were detached by trypsinization and the number of viable cells was counted using trypan blue exclusion test and a hemocytometer. All data were derived from an average of three determinations each in six replicates. The results were expressed as mean cell number ± SE and the differences between control and test series evaluated by means of Student's t-test. The drug cytotoxicity was evaluated based on the extent of cell growth inhibition. The cell growth inhibition of the tested drugs was calculated as follows: Cell growth inhibition,% = (Control-TestSeries)/(Control) × 100 [formula]
In the case of comparative evaluation of cytotoxicity of the inventive compounds themselves and the formulation related to consecutive dilutions of their initial solutions before adding to the cultures, 2 µL solutions of the drugs to be tested in medium with 5% FBS, in normal saline and in saline with 2,3 mM CaCl2 were added to the cultures. In control cultures, 2 µL of medium with 5% FBS, normal saline and saline with 2,3 mM CaCl2 were added as solvent controls (negative controls). […] Therefore an average of negative controls was calculated. […] Therefore an average of positive controls was calculated (for each antibiotic).

[1] = MDA-MB-231, 48 h, compound alone, final concentration 10^-7 mol/L, working solutions in MEM with 5% FBS, two days
[2] = MDA-MB-231, compound alone 10^-7 mol/L, in A (saline with […] CaCl2)

Row | SMILES | inhibition at 0.1 µM [1] | inhibition at 0.1 µM [2]
1 | CC1=C(/C=C/C(C)=C/C=C/C(C)=C/C(=O)N[C@@H](CS(=O)(=O)O)C(=O)OC(C)C)C(C)(C)CCC1 [compound I-1c, N-(all-trans-retinoyl)-Lwcysteic acid isopropyl ester] | 49.5% | 
2 | CNC(=O)[C@H](CS(=O)(=O)O)NC(=O)/C=C(C)/C=C/C=C(C)/C=C/C1=C(C)CCCC1(C)C [compound I-1g, N-(all-trans-retinoyl)-L-cysteic acid methylamide] | 43.2% | 43.2%
3 | CCCCOC(=O)[C@H](CS(=O)(=O)O)NC(=O)\C=C(C)/C=C/C=C(C)/C=C/C1=C(C)CCCC1(C)C [compound II-1e, N-(13-cis-retinoyl)-L-cysteic acid butyl ester] | 54.2% | 
4 | CC1=C(/C=C/C(C)=C/C=C/C(C)=C\C(=O)N[C@@H](CS(=O)(=O)O)C(N)=O)C(C)(C)CCC1 [compound II-1f, N-(13-cis-retinoyl)-L-cysteic acid amide] |  | 54.2%
